## Binding of CDR-mutated scFvs to a peptide of the spike HR2 region

The target is the same throughout: PDVDLGDISGINAS, from the HR2 region of SARS-CoV-2 spike.

Parent: Ab-14, a human scFv built as VH, a (GGGGS)3 linker, VL. Only the CDRs of the light chain vary.
VH: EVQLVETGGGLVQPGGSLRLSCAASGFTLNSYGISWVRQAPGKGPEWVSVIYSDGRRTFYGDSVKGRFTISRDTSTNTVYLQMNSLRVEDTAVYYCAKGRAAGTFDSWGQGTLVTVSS
VL: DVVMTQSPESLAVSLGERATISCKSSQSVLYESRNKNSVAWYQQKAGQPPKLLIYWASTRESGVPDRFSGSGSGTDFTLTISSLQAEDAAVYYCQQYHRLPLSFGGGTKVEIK

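Phage display of a naive human antibody library on the peptide gave the parent. These sequences belong to a second round, designed from the earlier measurements on random variants of the parent. Their group label is 14L_En_Gibbs (En: ensemble of fine-tuned language models; Gibbs: Gibbs sampling). AlphaSeq pools MATa yeast showing the antibodies with MATalpha yeast showing the peptide. The frequency of each diploid, read from paired DNA barcodes, reflects how well the two displayed proteins bind. The ratio of observed to expected reads was calibrated, replicate by replicate, on BCL2-family standards whose Kd was known from biolayer interferometry. There are six technical replicates.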

Variants are written as CDR1, CDR2 and CDR3 of the light chain (limits as in the source). Parent: KSSQSVLYESRNKNSVA, WASTRES, QQYHRLPLS. Scale: log10 of Kd in nM, estimated from mating counts; low values are strong binders. "nd" means that the variant was in the library but no mating with the target was seen in that replicate; the authors take this as a sign of poor binding, and no number exists.

CDR-L1	CDR-L2	CDR-L3	log10 Kd (nM) by replicate	signal with controls
HISPMQAMHYEAKNQVA	ETEQKYN	QQYIRLPLS	0.72 0.61 0.44 0.37 0.27 0.66	2/18 (3.36)
HLHTVNYTQAIGTNSIA	DANLHVT	QQYFRLPIM	0.94 1.13 1.09 1.17 1.24 1.10	1/18 (3.38)
NLQNIGSELSVWKNAIA	DVNIRES	QQYFRLPLL	0.60 0.19 0.44 0.18 0.30 0.36	0/18
KLSLSMSYSHEGTRHIA	NGSNRCH	QQYHRLPLI	2.11 nd 1.45 nd 2.71 2.25	1/18 (2.73)
QLAVDRLQEYEMGDAIA	GKTTRED	QQYYRLPLS	1.53 1.28 1.03 1.05 0.80 0.88	0/18
FIDGNYYDKYQASNSIA	DEAHIRA	QQYDLLPLS	nd nd nd nd nd nd	0/18
NLSYLQGEPTNSVNNVA	QTSKRAP	QQYQRLPLC	0.28 0.21 0.04 0.00 0.32 0.35	3/18 (2.58)
KVAQGIFDGKRNSHSIA	EVSELCD	QQYSRLPLE	0.45 0.31 0.15 0.05 0.24 0.30	2/18 (2.65)
RYQMDDNYGKGARNNVA	DGAEVRM	QQYARLPLL	0.77 0.73 0.84 0.69 0.80 0.65	0/18
KITDDFLTEGNRRQNIA	HNNVACD	QQYQQLPLA	0.81 0.70 0.57 0.18 0.67 0.81	2/18 (1.71)
YVSGQIDEGWNQQEAIA	QVTYKED	QQYYKLPLS	nd nd nd nd nd nd	0/18
SLFEKEREELSVEQNIA	DGTEHMD	QQYFRLPLL	0.86 1.12 0.77 0.45 0.85 1.33	0/18
SLHMMPPVGYALDANVA	NASQLFS	QQYFRLPLT	0.44 1.15 0.85 1.27 1.14 0.46	0/18
SVFMELAEEKASTRNIA	DASMRLA	QQYVRLPLG	0.27 0.45 -0.02 -0.03 0.06 0.35	0/18
MISMEEAPASQNASSIA	QGGLRAK	QQYNRLPLC	nd nd 1.84 1.82 nd 2.76	1/18 (3.07)
KLRWDDMPHEETRKNVA	DATMRVH	QQYNRLPLD	0.96 0.98 0.62 0.30 0.68 0.61	2/18 (2.87)
RIQDHMAVGEMSHSSIA	EESTRMD	QQYSRLPLA	0.73 0.55 0.53 0.98 0.97 1.05	1/18 (1.66)
KFMTSGEYQMHEQNNIA	QGNIKTV	QQYFRLPIS	0.76 0.61 0.31 0.59 0.66 0.76	0/18
RIQEQYQWPDNAGQNVA	EIQTAID	QQYAHLPLS	0.75 1.57 1.15 1.16 0.69 0.98	0/18
HYENISEPMGRYDQNIA	NVSIREH	QQYFMLPLS	1.18 0.82 0.94 1.50 0.75 1.07	0/18
QMRLLYENSGHRMNSIA	DETMKPD	QQYVRLPLH	0.86 0.66 1.30 1.15 0.64 0.89	0/18
ALEMDTLGQKPKQNNIA	NDRVSTE	QQYYMLPLS	nd 1.91 1.13 2.01 1.86 nd	0/18
NLVGRVPDMYDGRNAIA	DMHARAT	QQYFRLPLA	0.50 0.29 0.32 0.32 0.51 0.34	1/18 (3.05)
NMKVGLNFEDIQHQAIA	EVEKRES	QQYARLPLT	0.77 0.84 0.68 0.66 0.84 0.96	3/18 (2.64)
HISANMWMQGSQWDAVA	QGDIANN	QQYSRLPLS	0.80 0.25 1.21 1.24 0.93 0.42	1/18 (2.65)
HMQIDIEMEEKHQNHVA	EASHLEY	QQYSELPLT	0.92 1.29 1.29 1.08 0.91 1.04	1/18 (2.55)
KLMMFMQGYGCMKNNIA	NLSEVAT	QQYAQLPLV	nd nd 2.38 nd nd 3.17	0/18
KMRVSLLQGIYRQDSIA	STDIRVL	QQYHHLPLS	0.77 1.20 0.89 0.97 0.87 1.54	0/18
KIQDNLGTLMEQINSVA	NSEEIVD	QSYFRLPLS	1.50 0.88 0.90 0.62 0.99 1.33	0/18
SLSMFMDNYNQLYDSVA	DTANIDI	QQYDRLPLS	nd nd nd nd nd nd	0/18
SLGPFEQQIMKDLNNIA	NTQVRAT	QQYMRLPFM	0.01 -0.25 -0.25 -0.25 -0.17 -0.17	1/18 (2.36)
NVRDSLGYVQNVGSAVA	EASQVEM	QQYYTLPLT	nd 2.32 1.47 nd 2.63 nd	0/18

Excerpt, the final 4 entries:

CDR-L1,CDR-L2,CDR-L3,log10 Kd (nM) by replicate,signal with controls
KIQDNLGTLMEQINSVA,NSEEIVD,QSYFRLPLS,1.50 0.88 0.90 0.62 0.99 1.33,0/18
SLSMFMDNYNQLYDSVA,DTANIDI,QQYDRLPLS,nd nd nd nd nd nd,0/18
SLGPFEQQIMKDLNNIA,NTQVRAT,QQYMRLPFM,0.01 -0.25 -0.25 -0.25 -0.17 -0.17,1/18 (2.36)
NVRDSLGYVQNVGSAVA,EASQVEM,QQYYTLPLT,nd 2.32 1.47 nd 2.63 nd,0/18

Three control strains display no target. For all light chain designs, 4% of the pairings with them gave a signal, with a median of 2.64 and one signal in twenty below 1.59, so weak values seen in few replicates may be background. The control count says in how many pairings with the empty strains this scFv gave a signal, with their mean in brackets. Values of this round are not directly comparable with the first-round values of the same sequences. The parent sequence was in this pool as ten entries: three were never detected, three once, and four in most replicates, with averages from 0.34 to 2.37. The authors averaged sequences with at least three values out of six and counted those with two or fewer as poor binders.

Source: Li et al. 2023 (doi:10.1038/s41467-023-39022-2), MIT Lincoln Laboratory and A-Alpha Bio; data file from the FLAb repository.